Data published in the NIST ThermoML archive (doi:10.1016/j.fluid.2007.09.002).

Settings: Liquid, Closed cell (Static) method

For `CCCCOCCCC` [dibutyl ether], the “vapor or sublimation pressure” value (263.15 K) was 0.077 ± 0.002 kPa, the “vapor or sublimation pressure” value (273.15 K) was 0.166 ± 0.004 kPa and the “vapor or sublimation pressure” value (283.15 K) was 0.337 ± 0.008 kPa. The “vapor or sublimation pressure” value (293.15 K) was 0.649 ± 0.014 kPa, the “vapor or sublimation pressure” value (298.15 K) was 0.885 ± 0.019 kPa and the “vapor or sublimation pressure” value (303.15 K) was 1.193 ± 0.026 kPa. For the same compound, the “vapor or sublimation pressure” value (313.15 K) was 2.103 ± 0.043 kPa, the “vapor or sublimation pressure” value (323.15 K) was 3.571 ± 0.073 kPa and the “vapor or sublimation pressure” value (333.15 K) was 5.862 ± 0.12 kPa. For the same compound, the “vapor or sublimation pressure” value (343.15 K) was 9.329 ± 0.19 kPa.

Numbers after ± are expanded uncertainties.
